Experimental data as given in patent publication US8466167B2, “Compounds and compositions as TLR activity modulators” (IRM LLC, priority 2008, dated 2013).

Experiment: Body weight of mice after immunization
Settings: day 1, day 2, day 14 and day 28 after immunization

## Cc1ccc2c(c1)nc(N)c1ncc(CCc3ccc(N(C)C)cc3)cc12 [Example 169, 2-(4-(dimethylamino)phenethyl)-8-methylbenzo[f][1,7]naphthyridin-5-amine]
  weight drop, 3MenB/MF59 versus 3MenB/MF59+ compound: did not produce a statatistically significant different in weight drop
